# Only a part is listed here, and it is no random draw. Activity calls are given as the source filed them.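 How the source made its calls: active means mean activity change at or below -40%, meaning activation of 40% or more, at 20 µM; inactive means the rest.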
# Amino acid sequences for entries named in this document (tags omitted). A change or cut given only in a name is not applied to a line headed by its entry.
# UniProt O14727: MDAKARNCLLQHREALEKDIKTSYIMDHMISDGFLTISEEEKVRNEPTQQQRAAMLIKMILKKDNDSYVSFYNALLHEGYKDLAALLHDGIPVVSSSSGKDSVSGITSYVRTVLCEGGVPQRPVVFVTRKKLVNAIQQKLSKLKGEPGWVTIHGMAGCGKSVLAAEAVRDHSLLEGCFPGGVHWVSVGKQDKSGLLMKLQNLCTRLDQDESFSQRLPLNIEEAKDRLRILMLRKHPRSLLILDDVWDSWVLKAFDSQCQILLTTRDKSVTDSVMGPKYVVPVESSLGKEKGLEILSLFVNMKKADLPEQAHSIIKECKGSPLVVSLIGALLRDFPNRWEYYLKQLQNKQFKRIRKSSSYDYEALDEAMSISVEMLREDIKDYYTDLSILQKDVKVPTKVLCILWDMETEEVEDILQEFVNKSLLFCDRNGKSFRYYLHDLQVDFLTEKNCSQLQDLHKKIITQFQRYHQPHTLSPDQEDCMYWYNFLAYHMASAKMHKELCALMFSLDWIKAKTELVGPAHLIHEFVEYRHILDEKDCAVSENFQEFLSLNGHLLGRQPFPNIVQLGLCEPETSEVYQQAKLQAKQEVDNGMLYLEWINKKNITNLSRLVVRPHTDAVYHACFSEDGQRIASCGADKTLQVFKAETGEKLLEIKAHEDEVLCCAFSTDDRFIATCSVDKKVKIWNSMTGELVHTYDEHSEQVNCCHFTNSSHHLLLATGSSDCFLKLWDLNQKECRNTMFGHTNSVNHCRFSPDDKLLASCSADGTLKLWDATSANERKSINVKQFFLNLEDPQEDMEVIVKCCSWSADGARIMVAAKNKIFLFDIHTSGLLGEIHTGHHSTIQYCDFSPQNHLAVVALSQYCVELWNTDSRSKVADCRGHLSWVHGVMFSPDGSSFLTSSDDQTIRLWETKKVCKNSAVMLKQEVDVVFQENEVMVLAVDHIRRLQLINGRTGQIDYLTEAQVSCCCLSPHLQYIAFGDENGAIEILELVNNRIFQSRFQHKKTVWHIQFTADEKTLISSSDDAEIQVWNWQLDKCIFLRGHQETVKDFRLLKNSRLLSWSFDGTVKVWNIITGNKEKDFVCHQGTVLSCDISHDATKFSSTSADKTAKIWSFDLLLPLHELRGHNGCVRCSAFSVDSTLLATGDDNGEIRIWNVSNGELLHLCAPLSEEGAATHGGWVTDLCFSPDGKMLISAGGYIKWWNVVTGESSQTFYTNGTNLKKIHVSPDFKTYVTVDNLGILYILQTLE
# Biological target: Apoptotic protease-activating factor 1 (Homo sapiens) (UniProt O14727)
# Assay: Apaf-1 activators, single-dose retest, confirmation, biochemical, fluorescence, DEVD-Rh110, 20 µM (AID 504617)
# Settings: reconstituted apoptosome caspase-3 activity, at 20 µM, hits give low values
compound,measurement,value
O=[As](O)(c1ccc(O)cc1)c1ccccc1O,"activity change, negative = activation",inactive: 15.2%

# — PubChem BioAssay AID504617 (Sanford-Burnham Center for Chemical Genomics, 2011)
